Only a part is listed here, and it is no random draw. Calls of active or inactive are those of the source. No stated cut-off is given here; in the data, active means activation above about 7.8%; inactive means the rest.

A short description of the test: SMARCA2 (BRM) function activators, primary screen, cell-based, luminescence, high throughput (AID 652017).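 Further: 0% = vehicle wells and 100% = reference activator wells.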 Particulars: MG213 cells, MMTV-luciferase reporter, dexamethasone, overnight; at 9.1 µM; active compounds read high.
For the compound `CP(=O)(Nc1ccccc1Br)Oc1ccccc1` (stereo unspecified), the activation is inactive: -2.3%.

For the origin of these results see PubChem BioAssay AID652017 (The Scripps Research Institute Molecular Screening Center, 2013).
